Reference: ChEMBL document CHEMBL4041549, “Tetrahydroisoquinoline-7-carboxamide Derivatives as New Selective Discoidin Domain Receptor 1 (DDR1) Inhibitors” (ACS Med Chem Lett, 2017)

Amino acid sequences for entries named in this document (tags omitted).
UniProt P10721, whole entry: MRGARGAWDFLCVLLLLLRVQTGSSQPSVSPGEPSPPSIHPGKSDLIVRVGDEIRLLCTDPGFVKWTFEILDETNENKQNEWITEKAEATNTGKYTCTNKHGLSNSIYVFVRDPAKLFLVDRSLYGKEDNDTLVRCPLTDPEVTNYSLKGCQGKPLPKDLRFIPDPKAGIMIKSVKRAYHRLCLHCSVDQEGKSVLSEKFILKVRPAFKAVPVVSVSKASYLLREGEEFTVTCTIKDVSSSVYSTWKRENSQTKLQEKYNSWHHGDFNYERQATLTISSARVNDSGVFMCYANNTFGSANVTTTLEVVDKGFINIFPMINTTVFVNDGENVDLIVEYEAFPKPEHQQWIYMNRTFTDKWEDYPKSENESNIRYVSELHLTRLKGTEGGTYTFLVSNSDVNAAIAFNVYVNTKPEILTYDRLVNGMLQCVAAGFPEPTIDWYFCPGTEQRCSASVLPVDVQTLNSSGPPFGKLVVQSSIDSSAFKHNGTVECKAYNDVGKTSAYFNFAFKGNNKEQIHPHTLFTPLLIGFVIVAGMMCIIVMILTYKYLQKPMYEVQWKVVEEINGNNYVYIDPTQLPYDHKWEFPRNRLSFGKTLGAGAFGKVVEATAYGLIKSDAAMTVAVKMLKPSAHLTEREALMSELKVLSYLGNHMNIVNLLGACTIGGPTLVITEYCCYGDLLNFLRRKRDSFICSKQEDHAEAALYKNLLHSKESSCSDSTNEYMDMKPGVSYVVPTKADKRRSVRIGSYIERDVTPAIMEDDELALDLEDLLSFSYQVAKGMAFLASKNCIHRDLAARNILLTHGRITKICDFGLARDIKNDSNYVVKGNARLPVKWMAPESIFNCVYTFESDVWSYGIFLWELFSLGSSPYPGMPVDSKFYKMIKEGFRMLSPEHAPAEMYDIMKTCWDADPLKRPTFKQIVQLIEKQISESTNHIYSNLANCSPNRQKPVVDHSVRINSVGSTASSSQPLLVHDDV

Biological target: Mast/stem cell growth factor receptor Kit (Homo sapiens, UniProt P10721)
Assay: Inhibition of recombinant human His-tagged c-kit cytoplasmic domain (544 to 976 residues) expressed in baculovirus expression system using […] as substrate measured after 1 hr by FRET-based Z'-Lyte assay

SMILES	IC50 [µM]
C[C@@H]1CN(c2cncnc2)Cc2cc(NC(=O)c3cc(CN4CCN(C)CC4)cc(C(F)(F)F)c3)ccc21	> 10
C[C@H]1CN(c2cncnc2)Cc2cc(NC(=O)c3cc(CN4CCN(C)CC4)cc(C(F)(F)F)c3)ccc21	> 10
